The data set has as its system healthy subjects, T2D subjects, PBC pruritus subjects. Conditions: 132 subjects exposed.

As to `CCCC[C@]1(CC)CS(=O)(=O)c2cc(CNC(CC(=O)O)CC(=O)O)c(OC)cc2[C@@H](c2ccccc2)N1` [GSK2330672], the “serious adverse events (SAEs) among studies” value is “three non-fatal serious adverse events (SAEs) were reported”.

(Values after patent publication US11186558B2, “Synthetic methods” (GLAXOSMITHKLINE INTELLECTUAL PROPERTY (NO. 2) LIMITED, priority 2016, dated 2021).)
